The source of these data is patent publication US4956363A, “Treatment of cognitive and behavioral disorders associated with aging and with dementia syndromes” (U C B S.A., priority 1988, dated 1990).

This series concerns male NMRI mice. Kind of series: Toxicity, Irwin's test. Type of series: in vivo. The conditions noted are these: i.p., death of two animals out of three within 48 hours. As for the experimental part: The toxicity of the compounds of the formula I has been determined on male NMRI mice by means of the Irwin's test (S. IRWIN, Psychopharmacologia, 13, (1968), 222-257).
Progressive doses of the compound to be tested are administered intraperitoneally to groups of three mice until the lethal dose is reached (dose which causes the death of two animals out of three within 48 hours).
Table VI below gives the lethal dose observed for the compounds of the formula I to be used according to the invention.

Consider `CNC(=O)Oc1ccc2c(c1)[C@]1(C)CCN(C)[C@@H]1N2C` [physostigmine, reference compound], for which the Lethal dose came to 0.82 mg/kg.
